Target: TBK1 (residues 1-657) (Homo sapiens (Human), UniProt Q9UHD2)
Test: TBK1 dose-response kinase assay
Type: biochemical
Conditions: TBK1 IC50 relative to amlexanox; greater than 1 = improved potency

The chains behind the UniProt entries cited, without tags or fusion partners. Residues count along the entry.
UniProt Q9UHD2, 1-657: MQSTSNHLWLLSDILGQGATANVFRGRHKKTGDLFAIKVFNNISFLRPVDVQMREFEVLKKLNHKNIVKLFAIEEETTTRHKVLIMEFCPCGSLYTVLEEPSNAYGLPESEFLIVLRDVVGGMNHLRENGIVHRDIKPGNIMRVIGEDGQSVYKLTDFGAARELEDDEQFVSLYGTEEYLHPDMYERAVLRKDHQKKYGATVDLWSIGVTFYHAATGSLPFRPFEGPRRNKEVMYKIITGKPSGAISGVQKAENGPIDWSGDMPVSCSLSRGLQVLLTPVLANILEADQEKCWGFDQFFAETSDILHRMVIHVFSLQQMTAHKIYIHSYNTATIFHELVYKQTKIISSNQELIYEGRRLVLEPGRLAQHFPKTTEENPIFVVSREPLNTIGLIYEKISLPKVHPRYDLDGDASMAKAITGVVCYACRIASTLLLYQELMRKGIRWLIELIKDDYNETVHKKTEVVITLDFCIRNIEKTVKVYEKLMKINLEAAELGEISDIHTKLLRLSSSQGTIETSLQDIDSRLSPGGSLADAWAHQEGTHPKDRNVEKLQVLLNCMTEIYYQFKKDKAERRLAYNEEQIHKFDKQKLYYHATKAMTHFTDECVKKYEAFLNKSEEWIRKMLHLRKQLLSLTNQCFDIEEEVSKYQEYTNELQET

Structure (SMILES): Nc1nc2oc3cc(F)c(C4=CCCCC4)cc3c(=O)c2cc1C(=O)O [Compound 268b, 2-Amino-7-(cyclohex-1-en-1-yl)-8-fluoro-5-oxo-5H-chromeno[2,3-b]pyridine-3-carboxylic acid]
- Fold Over Amlexanox: 0.00

Source: US10214536B2, “Amlexanox analogs” (The Regents of the University of Michigan, priority 2016, dated 2019)
